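Assay format: 96-well plates, 48-hour exposure. GI50 = concentration required for 50% inhibition of growth.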
Columns and labels:
Test in all cases: NCI anticancer screen, dose series, 48 h; in the data active = GI50 below about 0.43 µM; inactive = the rest
786-0 renal = tested on: 786-0 renal
A498 renal = tested on: A498 renal
A549 NSCLC = tested on: A549 NSCLC
ACHN renal = tested on: ACHN renal
BT-549 breast = tested on: BT-549 breast
CAKI-1 renal = tested on: CAKI-1 renal
COLO 205 colon = tested on: COLO 205 colon
DU-145 prostate = tested on: DU-145 prostate
EKVX NSCLC = tested on: EKVX NSCLC
HCT-116 colon = tested on: HCT-116 colon
HCT-15 colon = tested on: HCT-15 colon
HOP-62 NSCLC = tested on: HOP-62 NSCLC
HOP-92 NSCLC = tested on: HOP-92 NSCLC
HS 578T breast = tested on: HS 578T breast
HT29 colon = tested on: HT29 colon
IGROV1 ovarian = tested on: IGROV1 ovarian
K-562 leukemia = tested on: K-562 leukemia
KM12 colon = tested on: KM12 colon
LOX IMVI melanoma = tested on: LOX IMVI melanoma
M14 melanoma = tested on: M14 melanoma
MALME-3M melanoma = tested on: MALME-3M melanoma
MCF7 breast = tested on: MCF7 breast
MDA-MB-231 breast = tested on: MDA-MB-231 breast
MDA-MB-435 = tested on: MDA-MB-435
MDA-N = tested on: MDA-N
MOLT-4 leukemia = tested on: MOLT-4 leukemia
NCI-H226 lung = tested on: NCI-H226 lung
NCI-H23 lung = tested on: NCI-H23 lung
NCI-H322M lung = tested on: NCI-H322M lung
NCI-H460 lung = tested on: NCI-H460 lung
NCI-H522 lung = tested on: NCI-H522 lung
NCI/ADR-RES ovarian = tested on: NCI/ADR-RES ovarian
OVCAR-3 ovarian = tested on: OVCAR-3 ovarian
OVCAR-4 ovarian = tested on: OVCAR-4 ovarian
OVCAR-5 ovarian = tested on: OVCAR-5 ovarian
OVCAR-8 ovarian = tested on: OVCAR-8 ovarian
PC-3 prostate = tested on: PC-3 prostate
RPMI-8226 leukemia = tested on: RPMI-8226 leukemia
RXF 393 renal = tested on: RXF 393 renal
SF-268 CNS = tested on: SF-268 CNS
SF-295 CNS = tested on: SF-295 CNS
SF-539 CNS = tested on: SF-539 CNS
SK-MEL-2 melanoma = tested on: SK-MEL-2 melanoma
SK-MEL-28 melanoma = tested on: SK-MEL-28 melanoma
SK-MEL-5 melanoma = tested on: SK-MEL-5 melanoma
SK-OV-3 ovarian = tested on: SK-OV-3 ovarian
SN12C renal = tested on: SN12C renal
SNB-19 CNS = tested on: SNB-19 CNS
SNB-75 CNS = tested on: SNB-75 CNS
SR leukemia = tested on: SR leukemia
SW-620 colon = tested on: SW-620 colon
T-47D breast = tested on: T-47D breast
TK-10 renal = tested on: TK-10 renal
U251 CNS = tested on: U251 CNS
UACC-257 melanoma = tested on: UACC-257 melanoma
UACC-62 melanoma = tested on: UACC-62 melanoma
UO-31 renal = tested on: UO-31 renal

Measured: GI50

O=C(O)C1(Nc2ccccc2)CCN(Cc2ccccc2)CC1
inactive: 786-0 renal > 100 µM | A498 renal > 100 µM | A549 NSCLC > 100 µM | ACHN renal > 100 µM | BT-549 breast > 100 µM | CAKI-1 renal > 100 µM | COLO 205 colon > 100 µM | DU-145 prostate > 100 µM | EKVX NSCLC > 100 µM | HCT-116 colon > 100 µM | HCT-15 colon > 100 µM | HOP-62 NSCLC > 100 µM | HOP-92 NSCLC > 100 µM | HS 578T breast > 100 µM | HT29 colon > 100 µM | IGROV1 ovarian > 100 µM | K-562 leukemia > 100 µM | KM12 colon > 100 µM | LOX IMVI melanoma > 100 µM | M14 melanoma > 100 µM | MALME-3M melanoma > 100 µM | MCF7 breast > 100 µM | MDA-MB-231 breast > 100 µM | MDA-MB-435 = > 100 µM | MDA-N > 100 µM | MOLT-4 leukemia > 100 µM | NCI-H226 lung > 100 µM | NCI-H23 lung > 100 µM | NCI-H322M lung > 100 µM | NCI-H460 lung > 100 µM | NCI-H522 lung > 100 µM | NCI/ADR-RES ovarian > 100 µM | OVCAR-3 ovarian > 100 µM | OVCAR-4 ovarian > 100 µM | OVCAR-5 ovarian > 100 µM | OVCAR-8 ovarian > 100 µM | PC-3 prostate > 100 µM | RPMI-8226 leukemia > 100 µM | RXF 393 renal > 100 µM | SF-268 CNS > 100 µM | SF-295 CNS > 100 µM | SF-539 CNS > 100 µM | SK-MEL-2 melanoma > 100 µM | SK-MEL-28 melanoma > 100 µM | SK-MEL-5 melanoma > 100 µM | SK-OV-3 ovarian > 100 µM | SN12C renal > 100 µM | SNB-19 CNS > 100 µM | SNB-75 CNS > 100 µM | SR leukemia > 100 µM | SW-620 colon > 100 µM | T-47D breast > 100 µM | TK-10 renal > 100 µM | U251 CNS > 100 µM | UACC-257 melanoma > 100 µM | UACC-62 melanoma > 100 µM | UO-31 renal > 100 µM
